The values that follow are results of earlier work, collected in US11065330B2, “Induction of antigen-specific tolerance by peripheral phagocytosis” (PLS-Design GmbH, priority 2014, dated 2021).

This data set deals with NOD/Lt mice.

“VLGGG CALLRC IPALD SLTPA NED (VLGGGCALLRCIPALDSLTPANED; listed as Homo sapiens) [p277, 23-mer peptide derived from MT-hsp65]”: the “mice developing diabetes within 30 days” value (i.p. 50 μg p277 in IFA, two weeks later MT-hsp65 50 μg in IFA) is recorded as “None of 10”. For the same substance, the “mice developing blood glucose higher than 130 mg/dl within 3 weeks” value (single i.p. 50 μg p277 in IFA) was “None of 7”.
